The record followed here is PubChem BioAssay AID540364 (The Scripps Research Institute Molecular Screening Center, 2011).

The entries are a selection whose mix differs from that of the whole data set. Calls of active or inactive are those of the source.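 How the source made its calls: active means activation above the average of all compounds screened plus 3 SD, cutoff fixed separately per campaign (cut at about 7.5% in these data); inactive means the rest.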

The experiment can be described thus: FXN promoter activators, primary screen, cell-based, luciferase luminescence, HEK293 lucGAA850 (AID 540364).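 Further: 0% = DMSO wells and 100% = 10 µM SAHA wells.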 The settings on record: HEK293 lucGAA850 FXN promoter luciferase reporter, 24 h; at 6 µM; hits give high values; percent of 10 µM SAHA response.
In the case of `CN(C)P(=O)(N(C)C)n1c(Nc2ccccc2)nnc1-c1ccccc1`, the activation was inactive: 1.36%.
Turning to `O=P(Nc1nc2ccc(Cl)cc2s1)(c1ccccc1)c1ccccc1`, the activation is inactive: -0.09%.
Consider `CCCC1OP(N)(=O)OCC1CC` (centres undefined), for which the activation is inactive: -2.58%.
With `O=C(O)c1ccccc1[As](=O)(O)O` the figure was inactive: 0.92%; with `CC(=O)Nc1ccc([As](=O)(O)O)cc1`, inactive: -2.87%; with `CN(C(=O)Cc1ccc(Cl)c(Cl)c1)[C@H]1CCCC[C@@H]1N1CCCC1`, inactive: -1.92%.
For `Cc1ccc(NP(=O)(Oc2ccccc2F)Oc2ccccc2F)nc1`, the activation is inactive: 0.02%.
Turning to `CCOP(=O)(Nc1ccccc1)OCC`, the activation was inactive: 1.08%.
For `Cc1cc(SC(NC(=O)c2ccc(F)cc2)C(Cl)(Cl)Cl)ncn1` (centres undefined), the activation was inactive: -1.13%.
Consider `Nc1cccc2ccc([As](=O)(O)O)cc12`, for which the activation was inactive: 0.83%.
As to `CCN(N=Nc1nonc1N)c1nonc1N`, the activation is inactive: 3.92%.
Take `Cc1ccc(N/C(=N/P(=O)(N2CCOCC2)N2CCOCC2)N2CCOCC2)cc1`: the activation is inactive: -3.3%.
Turning to `CN(C(=O)Cc1ccc(Cl)c(Cl)c1)[C@H]1CCCC[C@H]1N1CCCC1`, the activation is inactive: -1.61%.
As to `NC(=O)c1cc([N+](=O)[O-])cc([N+](=O)[O-])c1N`, the activation was inactive: -0.38%.
With `Clc1ccc(Cl)c(NC2=NCC(CBr)S2)c1` (centres undefined) the figure was inactive: 1.24%.
With `CN1CCCC(OC(=O)C(c2ccccc2)c2ccccc2)C1` (centres undefined) the figure was inactive: 0.48%; with `Cc1ccc(OP(=O)(Nc2nccs2)Oc2ccc(C)cc2)cc1`, inactive: 1.22%; with `COc1ccccc1OP(=O)(Nc1ccc(C)cn1)Oc1ccccc1OC`, inactive: 0.66%.
The same measure for `O=C(NC(Sc1ccncn1)C(Cl)(Cl)Cl)c1ccccc1` (centres undefined): inactive: 0.35%; for `Oc1ccccc1CNc1ccccn1`: inactive: 0.09%.
`CC(C)CC(=O)NC(Sc1ccc(Cl)cc1)C(Cl)(Cl)Cl` (centres undefined): the activation is inactive: 2.97%.
The same measure for `Nc1cc(N)c2nonc2c1[N+](=O)[O-]`: inactive: 1.44%; for `COc1ccc(C2=NCC(CBr)S2)cc1` (centres undefined): inactive: 1.1%; for `O=[N+]([O-])c1cc([N+](=O)[O-])c(CCNc2ccccc2)c([N+](=O)[O-])c1`: inactive: -2.16%.
With `CCc1nc2c(n1)c1c(non1O)c1c2no[n+]1[O-]` the figure was active: 12.3%; with `Cc1ccc(NP(=O)(Oc2ccccc2)Oc2ccccc2)nc1`, inactive: 3.39%; with `CC(=O)N1C2C3N(C(C)=O)C1C1N(C(C)=O)C(C(N1C(C)=O)N3C(C)=O)N2C(C)=O`, inactive: 3.41%.
The same measure for `O=[N+]([O-])c1cccc2n[nH]nc12`: inactive: 0.26%; for `CCN(/C(=N/P(=O)(N1CCOCC1)N1CCOCC1)N1CCOCC1)c1ccc(OC)cc1`: inactive: 2.28%.
